pIC50: −log10 of the molar value.
Columns and labels:
[1] = target: Serotonin 3 (5-HT3) receptor (Rattus norvegicus, UniProt P35563+Q9JJ16); assay: Inhibition of [3H]BRL-43694 binding to rat 5-hydroxytryptamine 3 receptor; format: protein-complex assay
[2] = target: D(2) dopamine receptor (Rattus norvegicus, UniProt P61169); assay: Displacement of [3H]spiroperidol from D2 dopamine receptor

Chains of the proteins cited; added tags and fusions are not shown. Lines headed by an entry give the natural chain unless they say otherwise; changes in a name come on top.
UniProt P35563, whole entry: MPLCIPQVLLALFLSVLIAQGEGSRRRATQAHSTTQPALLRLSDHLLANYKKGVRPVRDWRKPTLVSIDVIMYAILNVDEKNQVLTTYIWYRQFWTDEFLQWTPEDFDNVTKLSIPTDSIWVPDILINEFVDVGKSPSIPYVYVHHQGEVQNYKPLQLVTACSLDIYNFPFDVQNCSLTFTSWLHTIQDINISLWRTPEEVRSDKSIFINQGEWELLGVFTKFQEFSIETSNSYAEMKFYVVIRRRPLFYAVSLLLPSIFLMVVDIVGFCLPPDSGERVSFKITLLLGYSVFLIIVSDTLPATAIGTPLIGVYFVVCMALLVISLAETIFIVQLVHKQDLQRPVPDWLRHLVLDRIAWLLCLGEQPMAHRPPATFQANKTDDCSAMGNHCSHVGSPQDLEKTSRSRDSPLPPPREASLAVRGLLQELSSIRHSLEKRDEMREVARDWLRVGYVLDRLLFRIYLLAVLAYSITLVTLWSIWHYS
UniProt Q9JJ16: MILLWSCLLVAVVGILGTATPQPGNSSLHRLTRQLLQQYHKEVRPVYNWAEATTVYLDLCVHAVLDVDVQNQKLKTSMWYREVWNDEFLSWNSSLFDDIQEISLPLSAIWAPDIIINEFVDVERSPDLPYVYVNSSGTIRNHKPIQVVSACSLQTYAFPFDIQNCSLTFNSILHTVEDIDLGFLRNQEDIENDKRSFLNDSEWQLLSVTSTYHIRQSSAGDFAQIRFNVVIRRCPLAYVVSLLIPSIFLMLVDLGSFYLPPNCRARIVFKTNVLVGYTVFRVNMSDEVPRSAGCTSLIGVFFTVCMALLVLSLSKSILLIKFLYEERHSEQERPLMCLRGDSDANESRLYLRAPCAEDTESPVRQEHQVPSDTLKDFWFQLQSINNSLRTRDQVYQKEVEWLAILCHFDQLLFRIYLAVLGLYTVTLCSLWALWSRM
UniProt P61169, whole entry: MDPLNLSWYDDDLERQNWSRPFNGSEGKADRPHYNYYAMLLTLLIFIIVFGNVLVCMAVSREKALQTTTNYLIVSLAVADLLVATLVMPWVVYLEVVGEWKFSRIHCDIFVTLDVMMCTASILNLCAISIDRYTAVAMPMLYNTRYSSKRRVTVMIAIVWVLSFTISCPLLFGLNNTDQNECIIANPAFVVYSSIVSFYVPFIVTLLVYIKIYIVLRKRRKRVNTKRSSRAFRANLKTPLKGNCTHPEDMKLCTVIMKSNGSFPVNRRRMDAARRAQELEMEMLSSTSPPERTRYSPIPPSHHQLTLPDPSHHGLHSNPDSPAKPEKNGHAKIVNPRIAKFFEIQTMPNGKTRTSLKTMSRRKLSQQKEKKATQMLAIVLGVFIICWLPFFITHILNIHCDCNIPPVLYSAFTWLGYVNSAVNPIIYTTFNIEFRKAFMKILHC

- pIC50 [1]: 7.05
- pIC50 [2]: 7.17
Compound: COc1cc(N)c(Cl)cc1C(=O)NC1CCN(CCCOc2ccc(F)cc2)CC1OC (configuration not stated) [CISAPRIDE]

— ChEMBL document CHEMBL1127648, “Synthesis of 2-piperazinylbenzothiazole and 2-piperazinylbenzoxazole derivatives with 5-HT3 antagonist and 5-HT4 agonist properties” (J Med Chem, 1994)
